We go through one molecule from paper PMC4383044, “Molecular insights into RNA and DNA helicase evolution from the determinants of specificity for a DEAD-box RNA helicase” (eLife, 2014).

The data set deals with T1, Mss116 helicase core D1D2, MBP-tagged (Saccharomyces cerevisiae? (paper: yeast), UniProt P15424 88-597).
T1 sequence: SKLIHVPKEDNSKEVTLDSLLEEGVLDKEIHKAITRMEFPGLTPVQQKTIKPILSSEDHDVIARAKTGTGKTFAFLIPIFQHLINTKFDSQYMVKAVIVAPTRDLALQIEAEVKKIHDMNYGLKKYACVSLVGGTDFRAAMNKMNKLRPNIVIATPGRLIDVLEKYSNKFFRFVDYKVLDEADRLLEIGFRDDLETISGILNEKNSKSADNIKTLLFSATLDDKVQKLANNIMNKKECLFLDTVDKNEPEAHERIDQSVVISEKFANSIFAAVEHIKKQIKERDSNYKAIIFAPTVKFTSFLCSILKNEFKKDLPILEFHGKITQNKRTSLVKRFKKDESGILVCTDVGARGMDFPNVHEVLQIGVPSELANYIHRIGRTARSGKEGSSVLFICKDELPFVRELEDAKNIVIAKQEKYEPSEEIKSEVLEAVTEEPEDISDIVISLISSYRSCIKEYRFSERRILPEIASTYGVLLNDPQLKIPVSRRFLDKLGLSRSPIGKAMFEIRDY
As to the kind of experiment: fluorescence anisotropy; ADP-BeFx titrated (value is nucleotide concentration), 2 uM protein, 10 nM RNA; 20 mM Tris-HCl pH 7.5, 100 mM KCl, 10% glycerol, 1 mM DTT, 5 mM MgCl2, 0.1 mg/ml BSA, 22 C, >=1 h; EMSA gels 6% at 4 C in 0.5x TBE; SEC with 200 mM KCl, no BSA. The settings on record: protein: recombinant; tags: N-terminal MBP (MalE); label: 5' FAM; single strand. Background: In fluorescence polarisation assays a small probe gives low polarisation when free and higher when bound to something large.

As a reminder, the Kd is the concentration at which binding is half-saturated. Consider AAAAAAAAAA (ssRNA) [A10-RNA, 5' FAM], for which the Kd amounted to 22 µM.
